{"sequences": {"note": "Sequences of proteins named here, by UniProt entry; tags and fusion partners are left off. Residues count along the entry.", "UniProt A0A075TEP6, 1-766": "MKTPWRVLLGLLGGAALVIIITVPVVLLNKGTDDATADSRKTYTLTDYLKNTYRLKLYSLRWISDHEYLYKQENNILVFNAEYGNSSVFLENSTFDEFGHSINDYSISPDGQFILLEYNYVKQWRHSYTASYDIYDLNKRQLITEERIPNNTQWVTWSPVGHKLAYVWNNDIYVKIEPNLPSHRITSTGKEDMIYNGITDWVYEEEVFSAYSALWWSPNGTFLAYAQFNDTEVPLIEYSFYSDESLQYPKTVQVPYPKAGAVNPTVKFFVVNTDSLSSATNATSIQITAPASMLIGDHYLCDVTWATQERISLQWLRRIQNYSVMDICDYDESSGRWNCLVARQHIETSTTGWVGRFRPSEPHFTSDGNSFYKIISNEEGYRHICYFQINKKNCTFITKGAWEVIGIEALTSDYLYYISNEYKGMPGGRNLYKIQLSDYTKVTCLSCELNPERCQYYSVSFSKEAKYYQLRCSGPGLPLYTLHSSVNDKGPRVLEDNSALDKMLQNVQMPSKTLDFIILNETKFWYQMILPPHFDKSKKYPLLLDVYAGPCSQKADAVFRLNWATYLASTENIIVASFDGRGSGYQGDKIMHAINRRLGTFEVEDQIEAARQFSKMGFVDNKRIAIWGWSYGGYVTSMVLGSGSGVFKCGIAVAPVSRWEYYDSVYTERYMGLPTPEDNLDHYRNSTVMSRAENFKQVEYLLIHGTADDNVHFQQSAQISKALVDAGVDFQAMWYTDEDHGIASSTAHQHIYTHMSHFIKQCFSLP"}, "source": "paper PMC3373380", "about": "(BMC Pharmacology, 2012)", "key": {"cynomolgus monkey DPP4": {"biological_target": "T1, cynomolgus monkey DPP4 (UniProt A0A075TEP6)", "T1 construct": "made in house", "experiment": "Steady-state inhibition of isolated cloned DPP4 at 37°C (gly-pro-pNA)", "type": "biochemical", "details": "mean ± SD (n)"}, "plasma DPP activity": {"test_system": "plasma DPP activity", "details": "24-hours post dose; cited from earlier work"}}}
{"smiles": "N[C@@H](CC(=O)N1CCn2c(nnc2C(F)(F)F)C1)Cc1cc(F)c(F)cc1F", "note": "[Sitagliptin, reference compound]", "values": [{"measurement": "Ki", "setting": "cynomolgus monkey DPP4", "value": "15.6 ± 3.6", "unit": "nM"}, {"measurement": "inhibition of plasma DPP4 activity at trough needed to obtain maximal glucose lowering", "setting": "plasma DPP activity", "value": 80, "unit": "%"}]}
